{"sequences": {"note": "By UniProt entry, the sequences of proteins in these tests, tags left out.", "UniProt P10443, whole entry": "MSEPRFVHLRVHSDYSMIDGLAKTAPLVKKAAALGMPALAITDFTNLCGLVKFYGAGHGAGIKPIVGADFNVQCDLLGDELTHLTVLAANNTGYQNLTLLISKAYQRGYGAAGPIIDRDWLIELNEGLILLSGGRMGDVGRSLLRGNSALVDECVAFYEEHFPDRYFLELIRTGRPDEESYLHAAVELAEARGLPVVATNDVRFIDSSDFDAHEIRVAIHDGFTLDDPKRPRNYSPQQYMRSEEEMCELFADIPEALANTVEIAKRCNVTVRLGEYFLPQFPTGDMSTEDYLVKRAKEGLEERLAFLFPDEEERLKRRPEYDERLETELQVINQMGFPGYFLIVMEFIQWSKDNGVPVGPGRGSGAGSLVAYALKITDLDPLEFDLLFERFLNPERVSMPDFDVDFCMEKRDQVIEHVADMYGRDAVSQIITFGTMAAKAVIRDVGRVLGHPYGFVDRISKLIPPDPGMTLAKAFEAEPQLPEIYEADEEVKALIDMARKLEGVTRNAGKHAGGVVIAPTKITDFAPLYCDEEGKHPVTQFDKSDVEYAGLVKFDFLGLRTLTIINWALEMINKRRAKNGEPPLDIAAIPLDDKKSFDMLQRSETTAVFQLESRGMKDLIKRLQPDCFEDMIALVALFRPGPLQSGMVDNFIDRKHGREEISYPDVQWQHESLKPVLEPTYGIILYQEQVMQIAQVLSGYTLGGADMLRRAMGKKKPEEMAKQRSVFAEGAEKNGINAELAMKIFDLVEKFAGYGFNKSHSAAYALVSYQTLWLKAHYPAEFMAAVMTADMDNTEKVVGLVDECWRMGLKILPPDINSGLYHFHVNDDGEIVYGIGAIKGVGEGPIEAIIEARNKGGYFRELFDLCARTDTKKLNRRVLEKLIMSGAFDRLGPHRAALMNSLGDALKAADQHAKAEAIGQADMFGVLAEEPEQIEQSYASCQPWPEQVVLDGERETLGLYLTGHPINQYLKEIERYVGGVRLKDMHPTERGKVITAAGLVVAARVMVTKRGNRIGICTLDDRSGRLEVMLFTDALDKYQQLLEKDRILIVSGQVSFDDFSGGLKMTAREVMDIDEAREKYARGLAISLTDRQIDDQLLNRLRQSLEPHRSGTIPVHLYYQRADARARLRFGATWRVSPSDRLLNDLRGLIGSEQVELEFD"}, "source": "patent US9944654B2", "about": "“Nargenicin compounds and uses thereof as antibacterial agents” (priority 2014, dated 2018)", "key": {"[1]": {"target": "E. coli DnaE (DNA polymerase III α-subunit from Escherichia coli) (Escherichia coli, UniProt P10443)", "assay": "In vitro DnaE single enzyme assay (E. coli)", "type": "biochemical"}, "[2]": {"system": "Escherichia coli MB5747 (LS 883, tolC)", "settings": "MHII broth; * = some reduction of growth versus control at […]"}}}
{"smiles": "CO[C@H]1C[C@H]2C=C[C@H]3[C@H]4O[C@]2(/C(C)=C/[C@@H](C)[C@@H]([C@@H](C)O)OC1=O)[C@@H]3C(O)[C@@H](C)[C@H]4OC(=O)c1ccc[nH]1", "note": "(some centres unmarked)", "values": [{"measurement": "E. coli DnaE IC50", "setting": "[1]", "value": ">50", "unit": "µg/mL"}, {"measurement": "E. coli LS883 tolC (MIC)", "setting": "[2]", "value": 8, "unit": "µg/mL"}]}
